Experimental data published in article PMC7830743 (Journal of medicinal chemistry, 2020).

Biological target: LDHA (Homo sapiens, UniProt P00338)
Experiment: SPR binding assay
Conditions: read-out: off rate koff (×10^4)

## NS(=O)(=O)c1ccc(Cc2c(-c3ccc(F)c(C#CCC4CCCC4)c3)nn(-c3nc(C(=O)O)cs3)c2CC2CC2)cc1F [Compound 38, 2-(3-(3-(3-Cyclopentylprop-1-yn-1-yl)-4-fluorophenyl)-5-(cyclo-propylmethyl)-4-(3-fluoro-4-sulfamoylbenzyl)-1H-pyrazol-1-yl)-thiazole-4-carboxylic Acid]
  koff: < 1e-06 s⁻¹

## NS(=O)(=O)c1ccc(Cc2c(-c3ccc(F)c(C#CC4CCCC4)c3)nn(-c3nc(C(=O)O)cs3)c2CC2CC2)cc1F [Compound 23, 2-(3-(3-(Cyclopentylethynyl)-4-fluorophenyl)-5-(cyclopropylmethyl)-4-(3-fluoro-4-sulfamoylbenzyl)-1H-pyrazol-1-yl)thiazole-4-carboxylic Acid]
  koff: < 1e-06 s⁻¹
